US20260384446A1, “PREPARATION FOR AND USE OF 7-HYDROXYLAMINE -SUBSTITUTED ALKYL CAMPTOTHECIN DERIVATIVES” (published 2026)

Legend:
[1] = system: human lung cancer cells (NCI-H1975); assay: Inhibition of tumor cell growth activity (CCK-8, 72 h), NCI-H1975; details: read-out: IC50 (nM) values of compounds inhibiting tumor cell growth, NCI-H1975
[2] = system: human breast cancer cells (MDA-MB-231); assay: Inhibition of tumor cell growth activity (CCK-8, 72 h), MDA-MB-231; details: read-out: IC50 (nM) values of compounds inhibiting tumor cell growth, MDA-MB-231, MDA-MB-231 cells
[3] = system: Human esophageal cancer cells (OE33); assay: Inhibition of tumor cell growth activity (CCK-8, 72 h), OE33; details: read-out: IC50 (nM) values of compounds inhibiting tumor cell growth, OE33
[4] = system: human gastric cancer cells (NCI-N87); assay: Inhibition of tumor cell growth activity (CCK-8, 72 h), NCI-N87; details: read-out: IC50 (nM) values of compounds inhibiting tumor cell growth, NCI-N87
[5] = system: Sk-Br-3; assay: Inhibition of tumor cell growth activity (CCK-8, 72 h), Sk-Br-3; details: read-out: IC50 (nM) values of compounds inhibiting tumor cell growth, Sk-Br-3, Sk-Br-3 cells

IC50 [1] [nM] | IC50 [2] [nM] | IC50 [3] [nM] | IC50 [4] [nM] | IC50 [5] [nM] | SMILES
10 to 100 | 100 to 500 | < 10 | < 10 | < 10 | CC[C@@]1(O)C(=O)OCc2c1cc1n(c2=O)Cc2c-1nc1cc(F)c(F)cc1c2CCNOC
10 to 100 | 10 to 100 | < 10 | < 10 | < 10 | CC[C@@]1(O)C(=O)OCc2c1cc1n(c2=O)Cc2c-1nc1cc3c(cc1c2CNOC)OCO3
10 to 100 | 100 to 500 | < 10 | < 10 | < 10 | CC[C@@]1(O)C(=O)OCc2c1cc1n(c2=O)Cc2c-1nc1cc3c(cc1c2CCNOC)OCO3
10 to 100 | 10 to 100 | < 10 | < 10 | < 10 | CC[C@@]1(O)C(=O)OCc2c1cc1n(c2=O)Cc2c-1nc1cc3c(cc1c2CCCNOC)OCO3
< 10 | 10 to 100 | < 10 | < 10 | < 10 | CC[C@@]1(O)C(=O)OCc2c1cc1n(c2=O)Cc2c-1nc1cc(F)c(C)cc1c2CCNOC
100 to 500 | 100 to 500 | 10 to 100 | 10 to 100 | 10 to 100 | CC[C@@]1(O)C(=O)OCc2c1cc1n(c2=O)Cc2c-1nc1ccccc1c2CNOC
10 to 100 | 100 to 500 | < 10 | 10 to 100 | 10 to 100 | CC[C@@]1(O)C(=O)OCc2c1cc1n(c2=O)Cc2c-1nc1cc(F)c(F)cc1c2CNOC
10 to 100 | 100 to 500 | 10 to 100 | < 10 | < 10 | CC[C@@]1(O)C(=O)OCc2c1cc1n(c2=O)Cc2c-1nc1ccccc1c2CCNOC
10 to 100 | 10 to 100 | < 10 | < 10 | < 10 | CC[C@@]1(O)C(=O)OCc2c1cc1n(c2=O)Cc2c-1nc1cc(F)c(C)cc1c2CNOC

SMILES | IC50 [1] [nM] | IC50 [2] [nM] | IC50 [3] [nM] | IC50 [4] [nM] | IC50 [5] [nM]
CC[C@@]1(O)C(=O)OCc2c1cc1n(c2=O)Cc2c-1nc1cc(F)c(C)c3c1c2[C@@H](NC(=O)CO)CC3 | 100 to 500 | 100 to 500 |  |  | 
